Amino acid sequences for entries named in this document (tags omitted).
UniProt Q12800, whole entry: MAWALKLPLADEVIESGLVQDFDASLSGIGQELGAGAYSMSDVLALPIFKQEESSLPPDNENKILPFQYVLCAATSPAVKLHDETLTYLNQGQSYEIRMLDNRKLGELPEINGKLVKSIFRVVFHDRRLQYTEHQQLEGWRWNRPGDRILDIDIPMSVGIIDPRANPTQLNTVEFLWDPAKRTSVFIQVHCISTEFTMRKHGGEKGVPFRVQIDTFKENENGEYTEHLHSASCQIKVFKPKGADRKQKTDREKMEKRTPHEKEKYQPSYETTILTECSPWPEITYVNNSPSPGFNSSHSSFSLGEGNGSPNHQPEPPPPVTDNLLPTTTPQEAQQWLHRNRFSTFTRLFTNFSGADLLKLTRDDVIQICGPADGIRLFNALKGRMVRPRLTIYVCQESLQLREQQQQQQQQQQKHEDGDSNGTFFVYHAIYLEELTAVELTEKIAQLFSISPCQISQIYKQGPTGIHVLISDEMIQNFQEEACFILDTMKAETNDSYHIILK

In patent publication US10392398B2, “Inhibitors of Late SV40 Factor (LSF) as cancer chemotherapeutics” (TRUSTEES OF BOSTON UNIVERSITY, priority 2010, dated 2019):

Legend:
QGY-7703 cells = assay: Cell viability GI50 (MTS), QGY-7703; details: read-out: QGY-7703 GI50
Method: QGY-7703 and A549 cells were cultured at 37° C. in 5% CO2 in DMEM (Dulbecco's modification of Eagle's Medium; Corning) supplemented with 10% Fetal Bovine Serum (FBS; Invitrogen). NIH-3T3 cells were cultured at 37° C. in 5% CO2 in DMEM supplemented with 10% Fetal Calf Serum (FCS; Atlanta Biologicals). For cell viability assays, 1,500 cells were seeded in 96-well plates and treated with FQI-34 or vehicle (DMSO) at appropriate concentrations (DMSO at 1%) after 20 hours. After 72-hour incubation with compound or vehicle, cell growth was assessed via the Promega CellTiter 96® AQueous One Solution Cell Proliferation Assay, a colorimetric method to determine the number of viable cells. 20 μL of the CellTiter 96® AQueous One Solution Reagent was added directly into cultured wells and incubated for one hour, after which the absorbance at 490 nm was read with a 96-well plate reader (Opys MR Microplate Reader). The CellTiter 96® AQueous One Solution contains an MTS tetrazolium compound which is bioreduced by cells into a colored formazan product that is soluble in tissue culture medium. The quantity of formazan product as measured by absorbance is directly proportional to the number of living cells in culture. GI50 values were determined from plots of the percentage of compound-treated cell growth to vehicle cell growth vs. compound concentration (GraphPad Prism; non-linear regression 4-parameter curve fit with variable slope). GI50 values were 0.26 μM in QGY-7703 cells, 1.8 μM in A549 cells and 1.49 μM in NIH-3T3 cells (FIGS. 11A-11C)

LSF [1] = target: T1, LSF (Homo sapiens, UniProt Q12800); assay: Cellular Thermal Shift Assay (CETSA), LSF; details: Table 5, YES/NO
Method: Drug-target engagement was assessed using CETSA as described by Molina et al. (Monitoring Drug-Target Engagement in Cells and Tissues Using Cellular Thermal Shift Assay. Science (2013) 341, 84-87). QGY-7703 cells were cultured at 37° C. in 5% CO2 in DMEM (Dulbecco's modification of Eagle's Medium; Corning) supplemented with 10% Fetal Bovine Serum (FBS; Invitrogen). Cells were seeded into 10 cm plates and allowed to reach 60-80% confluency. After trypsinization (0.05% Trypsin-EDTA, Invitrogen), cell pellet was washed twice with ice-cold 1×PBS (137 mM NaCl, 2.7 mM KCl, 10 mM Na2HPO4, 2 mM KH2PO4, pH 7.2). Cell pellet was lysed by addition of 200 μL freshly prepared ice-cold RIPA buffer (10 mM Tris-Cl pH 8.0, 1 mM EDTA, 0.5 mM EGTA, 1% Triton X-100, 0.1% sodium deoxycholate, 0.1% SDS, 140 mM NaCl) supplemented with 1 mM Pefabloc (Sigma-Aldrich), and flash frozen in liquid nitrogen and thawed for a total of three cycles. Cell lysate was centrifuged at 20,000×g for 20 minutes to clarify. Supernatant was either treated immediately or saved at −80° C. for future use. […]
Immunoblots were quantified using Image J and graphed using GraphPad PRISM. Area-under-the-curve (AUC) for the quantified western blots were calculated with GraphPad PRISM and non-parametric t-test was calculated to determine statistical significance between the curves. […]

LSF [2] = target: T1, LSF; assay: LSF-dependent luciferase reporter assay in NIH 3T3 cells; details: read-out: LSF-reporter assay IC50
Method: NIH 3T3 cells were transfected with the expression construct pEF1α-LSF, a LSF expression vector^6,20; the reporter construct pGL3B-WT4E1b, a firefly luciferase reporter vector driven by LSF^12; phRL-TK, a control renilla luciferase reporter vector; and pEFGP, essentially as previously described^12. Five hours after transfection, either vehicle (DMSO) or FQI compound was added, keeping DMSO at 0.5%. Cell extracts were harvested 36 hours post-transfection and firefly and renilla luciferase activities measured via a dual luciferase assay (Promega). Five μl of extract was mixed with 30 μl of luciferase assay reagent (Promega), and luminescence measured for 10 seconds using a 20/20n luminometer (Turner Biosystems). Subsequently, 30 μl of Stop & Glo reagent (Promega) was added, and luminescence also measured for 10 seconds. LSF transactivation activity is given as relative luciferase activity, the ratio of firefly to renilla activities.
NIH-3T3 cells were cultured at 37° C. in 5% CO2 in DMEM (Dulbecco's modification of Eagle's Medium; Corning) supplemented with 10% FCS (FCS; Atlanta Biologicals). Approximately 24 hours prior to transfection, 200,000 cells were plated in 35 mm dishes. After 24 hours, cells were ˜70% confluent, and were transfected for 5 hours with pEF1α-LSF, the reporter construct pGL3B-WT4E1b, phRLTK, and pEFGP (Grant, T. J. et al. Antiproliferative small-molecule inhibitors of transcription factor LSF reveal oncogene addiction to LSF in hepatocellular carcinoma. PNAS (2012), 109, 1-6). Vehicle (DMSO) or FQI-34 was then added, keeping the DMSO at 0.5%. Cell extracts were harvested 36 h post-transfection, and firefly and renilla luciferase activities were measured via a dual luciferase assay (Promega Dual-Luciferase Reporter Assay System). Relative luciferase activity represents firefly luciferase activity normalized to that of renilla luciferase in each extract. IC50 values were determined from plots of normalized luciferase activity vs. compound concentration (Prism GraphPad; non-linear regression 4-parameter curve fit with variable slope). LSF-Target affinity IC50 was 0.59 μM (FIG. 12).

## CCOc1cc(Cl)ccc1C1CC(=O)Nc2cc3c(cc21)OCO3 (stereo not shown)
QGY-7703 cells; Table 5
  GI50: 310 nM
QGY-7703 cells; Table 8
  GI50: 310 nM
LSF [1]
  LSF CETSA: YES
LSF [2]; Table 5
  IC50: 1730 nM
LSF [2]; Table 8
  IC50: 1730 nM

## CCOc1cc(F)ccc1C1CC(=O)Nc2cc3c(cc21)OCO3 (stereo not shown)
QGY-7703 cells; Table 5
  GI50: 1500 nM
QGY-7703 cells; Table 8
  GI50: 1500 nM
LSF [2]; Table 8
  IC50: 2900 nM

## CCOc1cc(Br)ccc1C1CC(=O)Nc2cc3c(cc21)OCO3 (stereo not shown)
QGY-7703 cells; Table 5
  GI50: 650 nM
QGY-7703 cells; Table 8
  GI50: 650 nM
LSF [1]
  LSF CETSA: YES
LSF [2]; Table 5
  IC50: 1820 nM
LSF [2]; Table 8
  IC50: 1820 nM

Like-named read-outs stand apart in the source and are kept apart here.
